From patent US12605517B1 (Belhaven BioPharma Inc., priority 2024, dated 2026) come the findings set out here.

Data set [1] is described as follows: Human Phase 1 clinical study, plasma epinephrine pharmacokinetics and bioavailability. It counts as in vivo. Particulars: 0.5 mg IM, read-out: mean baseline-corrected Cmax. The procedure:
Nor did the subject participate in Treatment D.
Blood samples were collected prior to dosing at 60, 30, and 0 minutes before dosing, and after dosing at 2, 5, 7, 10, 15, 20, 25, 30, 45, 60, 90, 120, 180, 240, and 360 minutes. […] Blood samples were analyzed in 8 runs with between run accuracy of −3.66% to 4.02% and precision of 1.30% to 9.94%. […] Recovery was >75% and freeze-thaw, short-term and long-term stability (584 days) were all shown to be acceptable; the analyte was stable under all conditions tested.
Baseline correction was accomplished using the average of the measured concentrations at nominal times of −60, −30, and 0 minutes before dosing.
The PK population consists of all human subjects who provided sufficient PK samples for a given treatment to allow for adequate determination of PK parameters of interest.

Data set [2] is described as follows: Study 101, plasma epinephrine pharmacokinetics. It counts as in vivo. The settings on record: human, 0.3 mg IM, read-out: Cmax (GeoMean). How it is done:
Each patient was provided each treatment of the trial with 72-hour washout periods between each treatment, beginning with a 3.5 mg intranasal dose, followed by a 0.3 mg intramuscular dose, followed by a 0.5 mg intramuscular dose, and concluding with a 5.5 mg intranasal dose, with a safety follow-up performed 3 to 5 days after the final dose was administered. The primary endpoints of the study were pharmacokinetic measurements and assessments of comparative bioavailability, while the secondary endpoints were safety concerns and pharmacodynamic assessments.

By Cmax is commonly meant the peak of the concentration-time curve. `CNC[C@H](O)c1ccc(O)c(O)c1` [Epinephrine IM, epinephrine]: the Cmax is 0.396 ng/mL in data set [1] and 0.199 ng/mL in data set [2].
